Legend:
[1] = molecular target: T1, human dopamine D3 receptor (Homo sapiens, UniProt P35462, G9S)
[2] = molecular target: T1, human dopamine D3 receptor; experiment: cell-based

Chains of the proteins cited; added tags and fusions are not shown.
UniProt P35462, whole entry G9S: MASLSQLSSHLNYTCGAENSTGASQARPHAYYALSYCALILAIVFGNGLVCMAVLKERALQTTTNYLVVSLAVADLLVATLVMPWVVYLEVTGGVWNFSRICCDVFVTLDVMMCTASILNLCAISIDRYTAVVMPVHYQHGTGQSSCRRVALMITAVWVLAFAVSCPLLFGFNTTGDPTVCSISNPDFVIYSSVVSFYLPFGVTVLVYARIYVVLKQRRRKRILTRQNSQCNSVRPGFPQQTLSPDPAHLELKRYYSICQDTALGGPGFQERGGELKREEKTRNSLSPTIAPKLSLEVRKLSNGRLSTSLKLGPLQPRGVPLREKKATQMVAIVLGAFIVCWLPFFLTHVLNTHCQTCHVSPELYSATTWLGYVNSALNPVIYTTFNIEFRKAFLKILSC

| Dopamine receptor preference [1] | functional D2/D3 preference [1] | SMILES | EC50 [2] [nM] |
| --- | --- | --- | --- |
| Balanced | balanced agonists | CN1CCc2cccc3c2[C@H]1Cc1ccc(O)c(O)c1-3 [Apomorphine] |  |
|  |  | CN[C@@H]1Cc2cccc3[nH]c(=O)n(c23)C1.O=C(O)/C=C\C(=O)O [PNU-95666] | 172 |

Reference: patent publication US20060052435A1, “Selective dopamin d3 receptor agonists for the treatment of sexual dysfunction” (priority 2001, published 2006)
